This experiment has as its target Metabotropic glutamate receptor 2 (Rattus norvegicus, UniProt P31421). Description: Tested for the agonistic activity against Metabotropic glutamate receptor 2. Type of experiment: functional.

The chains behind the UniProt entries cited, without tags or fusion partners. Where a name states a change or a piece, a line headed by the entry shows the natural chain unless it says otherwise.
UniProt P31421: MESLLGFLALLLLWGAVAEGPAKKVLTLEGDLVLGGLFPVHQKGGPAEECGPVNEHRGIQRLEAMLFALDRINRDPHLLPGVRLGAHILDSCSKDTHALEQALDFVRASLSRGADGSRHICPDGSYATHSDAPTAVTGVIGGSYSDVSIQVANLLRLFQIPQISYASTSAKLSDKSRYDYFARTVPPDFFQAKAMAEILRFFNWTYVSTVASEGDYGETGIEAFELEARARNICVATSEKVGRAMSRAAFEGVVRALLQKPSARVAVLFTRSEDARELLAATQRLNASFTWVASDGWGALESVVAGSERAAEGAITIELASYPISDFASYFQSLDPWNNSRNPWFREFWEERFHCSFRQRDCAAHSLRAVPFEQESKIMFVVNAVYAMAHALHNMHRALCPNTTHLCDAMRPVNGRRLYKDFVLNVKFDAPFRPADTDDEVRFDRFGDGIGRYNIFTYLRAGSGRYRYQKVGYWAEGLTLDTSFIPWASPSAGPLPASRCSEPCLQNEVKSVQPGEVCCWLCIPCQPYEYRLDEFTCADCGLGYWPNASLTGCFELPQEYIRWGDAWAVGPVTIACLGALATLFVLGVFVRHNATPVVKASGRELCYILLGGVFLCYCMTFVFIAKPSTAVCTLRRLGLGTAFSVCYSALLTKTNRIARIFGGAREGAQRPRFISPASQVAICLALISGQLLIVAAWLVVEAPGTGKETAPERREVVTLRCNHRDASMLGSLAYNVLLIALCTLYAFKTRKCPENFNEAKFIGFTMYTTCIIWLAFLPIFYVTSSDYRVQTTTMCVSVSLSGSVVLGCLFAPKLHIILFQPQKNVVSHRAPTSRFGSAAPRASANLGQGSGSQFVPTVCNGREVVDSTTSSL

In the case of `N[C@@]1(C(=O)O)CC[C@H]2[C@H](C(=O)O)[C@H]21` [EGLUMETAD], a half-maximal effect (EC50) was put at 35 nM.

The values are drawn from ChEMBL document CHEMBL1129857, “Synthesis, molecular modeling, and biology of the 1-benzyl derivative of APDC-an apparent mGluR6 selective ligand” (Bioorg Med Chem Lett, 1997).
